Experimental data: ChEMBL document CHEMBL3112560 (Bioorg Med Chem Lett, 2014)
pIC50: −log10 of the molar value.

Tests used:
[1] = Inhibition of VGLUT-mediated [3H]-L-Glu uptake into synaptic vesicles in rat brain; assay type: tissue-based
[2] = species: Rattus norvegicus; assay: Inhibition of VGLUT in rat brain assessed as [3H]-L-Glu uptake into synaptic vesicles at 250 uM relative to control; assay type: tissue-based

**Q.** With `C[C@]12CC[C@@H]3c4ccc(OS(=O)(=O)O)cc4CC[C@H]3[C@@H]1CCC2=O` [ESTRONE SULFURIC ACID] as the molecule, how does the pIC50 [1] read?
**A.** Its pIC50 is 3.92.

**Q.** What about the inhibition [2] of the same molecule?
**A.** The inhibition was 52%.
